Values of other authors, collected in US20040167132A1, “Methods of treating conditions associted with an Edg-2 receptor” (priority 2003, published 2004).

Target: Adrenergic α2

## COC(=O)[C@H]1[C@H]2C[C@H]3c4[nH]c5ccccc5c4CCN3C[C@H]2CC[C@@H]1O [^3H Rauwolscine, Rauwolscine]
  Kd: 7.8 nM
